In ChEMBL document CHEMBL1126779, “Antagonism of 1-(2,5-dimethoxy-4-methylphenyl)-2-aminopropane stimulus with a newly identified 5-HT2- versus 5-HT1C-selective antagonist” (J Med Chem, 1993):

Target: Serotonin 2 (5-HT2) receptor (Rattus norvegicus) (UniProt P30994+P08909+P14842)
Assay: Selectivity ratio, Ki against 5-HT1C versus 5-HT2
Type: protein assay
Outline: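 Rat frontal cortex homogenate (male Sprague-Dawley) was washed and preincubated 15 min at 37 °C in 50 mM Tris HCl, 0.5 mM EDTA, 10 mM MgCl2, pH 7.4, with 0.1% ascorbate and 10^-6 M pargyline. […] Nonspecific binding was set with 1.0 µM mianserin. Tubes ran 15 min at 37 °C in triplicate before filtration.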

## O=C(CCCN1CCC(Nc2ccccc2)CC1)c1ccc(F)cc1
  Ratio: 65
